# The list shows a part of the results, in another mix than the full data. Activity calls are given as the source filed them.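 Rule for the calls: active = highest replicate inhibition of at least 40%; inactive = the rest.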
# Molecular target: Golgi-associated PDZ and coiled-coil motif-containing protein (Homo sapiens) (UniProt Q9HD26)
# Assay: CAL PDZ peptide-binding inhibitors, primary screen, biochemical, fluorescence polarization, Cer-tagged CAL PDZ, HTS (AID 504414);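 note: plate controls were DMSO neutral control wells for no effect and unlabeled competitor peptide control wells for full effect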
# Settings: purified CAL PDZ, TMR-peptide fluorescence polarization, 1 h; at 20 µM; active compounds read high
row,SMILES,inhibition
1,CCC(=O)N(c1ccccc1)C1(COC)CCN(CCn2nnn(CC)c2=O)CC1,inactive: -0.517%
2,CCC(=O)N(c1ccccc1)C1(COC)CCN(CCc2cccs2)CC1,inactive: 0.109%

# From PubChem BioAssay AID504414 (Broad Institute, 2011)
